Measurements taken from publication PMC4281354, “The opioid receptor pharmacology of GSK1521498 compared to other ligands with differential effects on compulsive reward-related behaviours” (Psychopharmacology, 2014).

Sequences of proteins named here, by UniProt entry; tags and fusion partners are left off.
UniProt P41143, whole entry: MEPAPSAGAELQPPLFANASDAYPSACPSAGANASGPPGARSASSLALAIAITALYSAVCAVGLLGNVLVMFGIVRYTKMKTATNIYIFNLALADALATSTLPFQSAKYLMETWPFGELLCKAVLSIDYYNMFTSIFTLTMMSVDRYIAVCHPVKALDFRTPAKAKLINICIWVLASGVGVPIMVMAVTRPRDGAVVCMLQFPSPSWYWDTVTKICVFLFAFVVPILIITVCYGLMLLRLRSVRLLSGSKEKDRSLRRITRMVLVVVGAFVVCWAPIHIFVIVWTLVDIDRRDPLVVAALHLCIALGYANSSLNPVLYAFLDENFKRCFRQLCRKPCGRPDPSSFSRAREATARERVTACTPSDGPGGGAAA

Target: human DOPr (Homo sapiens, UniProt P41143)
Assay: Antagonism of Met-Enk-stimulated [35S]GTPγS binding, CHO membranes overexpressing DOPr (SPA, antagonist mode)
Type: biochemical

Q: How did the Ki turn out when `C=C1CC[C@@]2(O)[C@H]3Cc4ccc(O)c5c4[C@@]2(CCN3CC2CC2)[C@H]1O5` [Nalmefene, nalmefene, reference compound] was run?
A: 8.32 nM
